How the values were obtained:
[1] = system: hERG channels; details: cited from earlier work
[2] = system: alcohol-induced liver steatosis; details: twice-daily repeated oral dosing for 14 days
[3] = mouse, in vivo
[4] = half-life method
[5] = target: hCB1 (Homo sapiens, UniProt P21554); details: ratio of Ki hCB2 / Ki hCB1
[6] = system: MDCK-mdr1 cells; details: percent transported apical to basal, 10 μM, 1 h, 37 °C

Amino acid sequences for entries named in this document (tags omitted).
UniProt P21554, whole entry: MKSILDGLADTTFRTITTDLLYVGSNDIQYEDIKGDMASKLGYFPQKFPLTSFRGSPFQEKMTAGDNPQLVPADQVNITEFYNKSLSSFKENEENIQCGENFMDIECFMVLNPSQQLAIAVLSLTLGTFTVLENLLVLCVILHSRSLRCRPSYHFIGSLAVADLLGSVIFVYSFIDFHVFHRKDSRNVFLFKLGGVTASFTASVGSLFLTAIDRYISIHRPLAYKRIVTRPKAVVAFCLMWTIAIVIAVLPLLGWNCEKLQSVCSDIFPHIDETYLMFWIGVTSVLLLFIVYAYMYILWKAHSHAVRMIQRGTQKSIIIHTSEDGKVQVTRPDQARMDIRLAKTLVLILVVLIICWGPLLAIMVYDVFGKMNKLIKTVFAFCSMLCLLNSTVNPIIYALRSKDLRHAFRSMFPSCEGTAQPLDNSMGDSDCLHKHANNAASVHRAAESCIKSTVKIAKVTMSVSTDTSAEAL

Row | Compound | selectivity Ki CB2/CB1 [5] | MDCK-mdr1 A to B [6] | further results
1 | CN1CCN(c2ncnc3c2nc(-c2ccccc2Cl)n3-c2ccc(Cl)cc2)CC1 [Compound 6, 8-(2-Chlorophenyl)-9-(4-chlorophenyl)-6-(4-methylpiperazin-1-yl)-9H-purine] |  |  | hERG activity [1]: undesirable activity
2 | Clc1ccc(-n2c(-c3ccccc3Cl)nc3c(N4CCN(Cc5ccccc5Cl)CC4)ncnc32)cc1 [Compound 25, 6-[4-(2-Chlorobenzyl)piperazin-1-yl]-8-(2-chlorophenyl)-9-(4-chlorophenyl)-9H-purine] |  |  | accumulation of compound in brain at end of steatosis study [2]: no significant accumulation of the compound; brain accumulation upon repeated dosing [3]: did not accumulate in the brain; human-hepatic-microsomal stability clearance [4]: clearance: 14 mL/min/kg
3 | FC(F)(F)c1ccccc1CN1CCN(c2ncnc3c2nc(-c2ccccc2Cl)n3-c2ccc(Cl)cc2)CC1 [Compound 28, 8-(2-Chlorophenyl)-9-(4-chlorophenyl)-6-{4-[2-(trifluoromethyl)-benzyl]piperazin-1-yl}−9H-purine] | >2000 |  | 
4 | FC(F)(F)Oc1ccccc1CN1CCN(c2ncnc3c2nc(-c2ccccc2Cl)n3-c2ccc(Cl)cc2)CC1 [Compound 29, 8-(2-Chlorophenyl)-9-(4-chlorophenyl)-6-{4-[2-(trifluoromethoxy)benzyl]piperazin-1-yl}−9H-purine] | >5000 |  | 
5 | Clc1ccc(CN2CCN(c3ncnc4c3nc(-c3ccccc3Cl)n4-c3ccc(Cl)cc3)CC2)cc1 [Compound 33, 6-[4-(4-Chlorobenzyl)piperazin-1-yl]-8-(2-chlorophenyl)-9-(4-chlorophenyl)-9H-purine] |  | 0% | 
6 | COc1ccc(CN2CCN(c3ncnc4c3nc(-c3ccccc3Cl)n4-c3ccc(Cl)cc3)CC2)cc1 [Compound 35, 8-(2-Chlorophenyl)-9-(4-chlorophenyl)-6-[4-(4-methoxybenzyl)-piperazin-1-yl]-9H-purine] |  | 0% | 

Source: PMC7607848 (Journal of medicinal chemistry, 2018)
